# According to US5266599A, “Use of (+)-1-[(3,4,5-trimethoxy)-benzyloxymethyl]-1-phenyl-N,N-dimethyl-n-propy lamine to increase gastric discharge in a subject” (priority 1989, dated 1993):
# Sequences of proteins named here, by UniProt entry; tags and fusion partners are left off. A change or cut given only in a name is not applied to a line headed by its entry. Residues count along the entry.
# UniProt A0A286XTF2, 1-366: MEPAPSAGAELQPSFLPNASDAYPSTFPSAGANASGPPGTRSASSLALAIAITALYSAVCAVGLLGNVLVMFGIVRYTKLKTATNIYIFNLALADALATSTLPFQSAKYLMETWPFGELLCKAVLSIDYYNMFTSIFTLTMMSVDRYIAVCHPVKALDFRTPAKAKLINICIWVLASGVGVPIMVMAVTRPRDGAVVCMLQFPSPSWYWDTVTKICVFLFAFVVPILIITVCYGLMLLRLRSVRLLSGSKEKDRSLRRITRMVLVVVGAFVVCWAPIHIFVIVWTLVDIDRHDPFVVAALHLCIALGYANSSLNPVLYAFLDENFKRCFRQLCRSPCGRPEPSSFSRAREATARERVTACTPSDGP
# UniProt P41144: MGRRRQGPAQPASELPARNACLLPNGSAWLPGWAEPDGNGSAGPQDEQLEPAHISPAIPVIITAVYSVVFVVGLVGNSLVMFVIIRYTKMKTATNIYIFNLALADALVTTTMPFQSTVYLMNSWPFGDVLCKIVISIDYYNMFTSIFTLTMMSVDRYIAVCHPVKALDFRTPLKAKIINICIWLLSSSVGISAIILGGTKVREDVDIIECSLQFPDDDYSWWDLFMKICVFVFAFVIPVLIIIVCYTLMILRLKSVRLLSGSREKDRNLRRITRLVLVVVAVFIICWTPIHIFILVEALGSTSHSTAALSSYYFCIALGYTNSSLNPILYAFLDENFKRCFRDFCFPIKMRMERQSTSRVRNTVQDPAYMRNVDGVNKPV
# Key:
# mu receptor = experiment: Binding affinity to opiate receptor mu (inhibition of binding of a specific radioactive ligand); conditions: read-out: CI50, inhibition of 50% of the binding of a specific radioactive ligand, mu receptor, racemates uncorrected
# [1] = test system: abdominal cramps caused by acetic acid; experiment: Analgesic activity in vivo, abdominal cramps caused by intraperitoneal acetic acid (derived from Koster); conditions: 50 mg/kg, orally, mice
# delta receptor = delta receptor (Cavia porcellus, UniProt A0A286XTF2); conditions: read-out: CI50, inhibition of 50% of the binding of a specific radioactive ligand, delta receptor, racemates uncorrected
# kappa receptor [2] = target: T1, kappa receptor (Cavia porcellus, UniProt P41144)
# kappa receptor [3] = target: T1, kappa receptor; conditions: cited from earlier work
# [4] = test system: opiate receptors of the kappa type in the gastric mucous membrane; conditions: dog, M. Gue et al.; cited from earlier work
structure (smiles),measurement,setting,value
CN(C(=O)Cc1ccc(Cl)c(Cl)c1)[C@@H]1CCCC[C@H]1N1CCCC1 (relative stereo),IC50,mu receptor,1030 nM
same,% analgesia,[1],90.0%
same,IC50,delta receptor,14600 nM
same,kappa receptor affinity (in words),"kappa receptor [2]; compared with the (+) enantiomer, kappa receptor only",The same applies
same,IC50,"kappa receptor [2]; read-out: CI50, inhibition of 50% of the binding of a specific radioactive ligand, kappa receptor, racemates uncorrected",66 nM
same,"kappa receptor specificity (in words, as reported)",kappa receptor [3],binds specifically to the kappa receptors
same,gastric discharge after oral administration (in words),[4],modify the gastric discharge by their local action
